# Antibody variant affinities, Ab-14 light chain, assay B

Target: peptide PDVDLGDISGINAS, taken from heptad repeat 2 (HR2) of SARS-CoV-2 spike.

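The starting antibody came from a phage panning campaign against this peptide. These sequences belong to a second round, designed from the earlier measurements on random variants of the parent. Several design methods are mixed in this list. AlphaSeq pools MATa yeast showing the antibodies with MATalpha yeast showing the peptide. The frequency of each diploid, read from paired DNA barcodes, reflects how well the two displayed proteins bind. The ratio of observed to expected reads was calibrated, replicate by replicate, on BCL2-family standards whose Kd was known from biolayer interferometry. The assay was run in six technical replicates.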

Each scFv is VH, the linker GGGGSGGGGSGGGGS, VL, as in the parent Ab-14, and differs from it in the CDRs of the light chain only.
VH: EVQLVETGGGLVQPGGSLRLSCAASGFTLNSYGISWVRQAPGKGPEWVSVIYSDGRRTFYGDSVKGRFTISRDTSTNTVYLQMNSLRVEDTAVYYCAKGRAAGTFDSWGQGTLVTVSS
VL: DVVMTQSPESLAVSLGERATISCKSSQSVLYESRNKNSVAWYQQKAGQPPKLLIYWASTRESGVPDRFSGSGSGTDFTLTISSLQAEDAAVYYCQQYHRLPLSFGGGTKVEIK

Each variant is given by its three light chain CDRs, as the data file delimits them; those of the parent are KSSQSVLYESRNKNSVA, WASTRES, QQYHRLPLS. The read-out is the apparent dissociation constant on a log10 scale (nM): the lower, the stronger. The mean shown is taken over the replicates in which the pair was detected. Where no diploid with the target was found in any replicate, the entry reads "nd": below detection, most likely a poor binder, though not proof of it. Three control strains display no target. For all light chain designs, 4% of the pairings with them gave a signal, with a median of 2.64 and one signal in twenty below 1.59, so weak values seen in few replicates may be background. In the paper, a design with two or fewer of six values counts as a poor binder. A sequence measured in both rounds can read differently, since the two assays cover different ranges.

CDR-L1	CDR-L2	CDR-L3	log10 Kd (nM), mean	detected
KSSQSVLEESRNKNSVA	HASTRES	QTYHRLPLS	0.90	6/6
KSSQSMLYESRNKNSVA	HASTRES	QQHHRLPLG	nd	0/6
KVSSSFLYEDRNKNSVA	QASQRES	QQYHRLPLS	-0.02	6/6
KLSQSVLYESRNSNSVA	HASTRES	QQYHRLPLS	0.28	6/6
TISQMLLMQTSHKNSVA	GEETRYA	QQYHRLPLS	0.48	6/6
TLTQVTMVESYNKSSVA	QASTRLE	QDYHRLPLS	1.34	6/6
KLSGSTLYESRNKNSVA	NASTRES	QQYHRLPLS	-0.31	6/6
KSSFSWLYESRNKNSVA	GASIRES	QQYHRLPLS	-0.11	6/6
KLSQSYLYESRNSNSVA	NASTRES	QQYHRLPLS	0.62	6/6
KLLGQNLQNMDKLNSIA	DQSVHYQ	QQYGRLPFT	0.75	6/6
HSSMSVAYESRNKNSVA	NASTRES	QQYHRLPLS	0.41	6/6
RVQMGDQPGKTARNNIA	DGEEGYR	QQYARLPLS	0.38	6/6
YMSGQEPGDWNQQEAIA	EVTYKEH	QQYYRLPLS	nd	0/6
KLRQQTLYESRNKNSVA	GASTREE	QQYHRLPLS	-0.26	6/6
KMSQSVPYEERNLNNVA	NGSTRCS	QQYHRLPLS	0.16	6/6
KSSQSVLRESRTKNSVA	YASERES	QQYHRLPLS	1.34	4/6
KVSEFMRGLMSRQDSIA	DNVTRNN	QQYDRLPLS	2.10	6/6
HLSWVVLLESRNKNSVA	NASTRES	QQYHRLPLS	0.01	6/6
KLSQSVCYESRNKNSVA	EASTRES	QQYHRLPLS	-0.19	6/6
KCQQSQDYESRNKNAVA	NASLRED	QQYHRLPLS	-0.05	6/6
KLSMSYRYESQEKNSIA	EMNTREE	QSYHRLPLS	1.27	6/6
NFSQMVLTGSTLRQSVA	HASTREE	QQYHRLPLI	1.09	6/6
KLQWSTLYMSRNCNSVA	DASQRES	QQYHRLPLS	0.75	6/6
KMSQLQLYEWRNKNSVA	NASYRES	QQYHRLPLS	0.64	6/6
KFSQSVAYEDRTKNSVA	NASTRES	QQYHRLPLS	-0.04	6/6
KMSSSWLMEERNKNSVA	QASQRER	QQYHRLPLS	-0.56	6/6
RSKQSVLYESRNSNSVA	GASTRES	QQYHRLPLS	0.08	6/6
KLDYQADMYGVQCNNVA	HADIREP	QQYFKLPLN	0.75	6/6
TISQLTFVESKNRNNVA	EMTTREN	QDYDRLPLS	2.80	5/6
MISQLMNMGQFAINSVA	QASLRCN	QQYDRLPLM	1.53	2/6
KFQQSMLYESRKKNQVA	WASTRES	QQYHRLPLS	nd	0/6
KLSQSVLYESRWKNSVA	GASTRES	QQYHRLPLS	0.06	6/6
TISMMVGTKGYNKNSVA	NAETRED	QQYHRLPLS	1.17	6/6
KADQSWLYESRNKNSVA	GASTRES	QQYHRLPLI	0.14	6/6
KLSQSYEYESRNKNSVA	NASQREC	QQYHRLPLS	0.06	6/6
KSSQSFLVESRNKNSVA	GASTRES	QQYHALTLS	1.20	6/6
KVSQSWLYESRNKNSVA	NASTRES	QQYHRLPLS	-0.08	6/6
KSSQSVLYESRNKNHVA	WASTRES	QQYHRLPLS	1.58	1/6
TIGQMFNGESRNRNSVA	QAETRES	QSYDRLPLS	0.84	6/6
KLSMITGHMHMSKNNVA	EMVTREN	QQYDRLPLS	0.84	6/6
TLYGLSNSMSINKNSVA	EMTTRED	QQYDRLPLV	1.43	6/6
KLKQSTLYESRNQNSVA	WASTRES	QQYHRLPLS	1.01	6/6
KSQQSVLYEDRQKNSCA	WASTRES	QQYHRLPLS	nd	0/6
HMSMLTLQGMRHTNSVA	QMTTREN	QQYDRLPLM	0.58	6/6
KLSISYLGESRNKNSVA	EASTRES	QQYHRLPLS	0.10	6/6
MISQLYNMGQFAINSVA	QASERNE	QQYDRLPLQ	1.46	6/6
KVSQSVLYESRNKNSVA	NASTRES	QQYHRLPLQ	-0.02	6/6

Source: Li et al. 2023 (doi:10.1038/s41467-023-39022-2), MIT Lincoln Laboratory and A-Alpha Bio; data file from the FLAb repository.